Yeast mating assay 1: variants of the scFv Ab-14

From the AlphaSeq antibody data of Engelhart et al. 2022 (doi:10.1038/s41597-022-01779-4), copy in the FLAb collection.

Antigen: PDVDLGDISGINAS, a 14-residue peptide of the SARS-CoV-2 spike HR2 region.

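The starting antibody came from a phage panning campaign against this peptide. Variants in AAYL50 differ from the parent at up to three CDR positions; double and triple changes were sampled at random. The scFvs were displayed on barcoded MATa yeast, the peptide on MATalpha yeast. Binding brings cells together so that they mate, and sequencing counts the barcode pairs among the diploids. Each replicate has its own calibration line, from reference interactions of the BCL2 family. The assay was run in three technical replicates.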

Parent scFv Ab-14: VH joined to VL by the linker GGGGSGGGGSGGGGS. Changes lie in the light chain CDRs alone.
VH: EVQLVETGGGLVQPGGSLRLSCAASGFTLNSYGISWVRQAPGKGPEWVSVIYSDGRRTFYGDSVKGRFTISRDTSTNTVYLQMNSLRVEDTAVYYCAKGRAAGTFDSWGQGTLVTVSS
VL: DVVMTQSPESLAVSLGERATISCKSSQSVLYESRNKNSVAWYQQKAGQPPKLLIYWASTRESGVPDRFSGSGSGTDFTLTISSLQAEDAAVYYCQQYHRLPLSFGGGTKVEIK

Each variant is given by its three light chain CDRs, as the data file delimits them; those of the parent are KSSQSVLYESRNKNSVA, WASTRES, QQYHRLPLS.
Affinities are written as log10 Kd with Kd in nM; a lower number is a better binder.
"n.d." marks a missing value. The strain was present, yet no cells mated with the target were sequenced in that replicate, which points to weak or no binding.
In this assay the parent's reference entry averaged 0.65; its copy inside this library read 1.68.
Background: pairings of library AAYL50 with three empty control strains gave a value in 18% of cases (median 4.19, 5th percentile 2.99). Values in that range, when seen in few replicates, are hard to tell from nonspecific mating. Also given: how often the same scFv was detected with the empty control strains, with their mean in brackets.

CDR-L1,CDR-L2,CDR-L3,log10 Kd (nM) by replicate,control signals
KSMQSVLYESRNKNSVA,WQMTRES,QQYHRLPLS,n.d. n.d. 4.91,2 of 9 (3.89)
KSSQSVLYESRGKNSVA,WWMTRES,QQYHRLPLS,n.d. n.d. 5.66,7 of 9 (4.51)
KSSQSVLYLMRNKNSVA,WASTRES,QQYFRLPLS,2.16 1.68 3.36,1 of 9 (3.01)
KVSQSVLYESRNKNSVA,WASTRES,QQYWRLPLS,0.54 0.74 0.71,1 of 9 (3.73)
KSSQSVLYELENKNSPA,WASTRES,QQYHRLPLS,4.18 4.07 n.d.,2 of 9 (4.50)
KSSQSDLYESQNKNSVA,WASTRES,PQYHRLPLS,n.d. n.d. n.d.,1 of 9 (2.56)
KSSQEVLYESRNKASVA,WASTRES,QQYHRLPLR,3.20 2.93 3.63,4 of 9 (4.06)
KWSQSVMYESRNKNSVA,WASTRIS,QQYHRLPLS,n.d. n.d. n.d.,0 of 9
KSIQSVLYESREKNSVA,WASTRES,QQYHRLPLS,1.98 2.27 2.31,4 of 9 (4.45)
KSSQSVLYESRNKNSVA,WASHRES,QQSHRLPLV,4.76 n.d. n.d.,1 of 9 (3.87)
QSSQSVLYESRNKNSVA,WASTREW,CQYHRLPLS,1.48 1.57 1.37,2 of 9 (3.53)
KSSQSVLYESRNKNSEA,WASTEES,QQYERLPLS,n.d. n.d. 5.48,1 of 9 (3.81)
KSSQSVLYEHRNKNSVA,WASIRES,QQYHRTPLS,0.93 0.99 0.84,0 of 9
KSSQSVLYESRFKNSVW,WASTRES,QQYHRPPLS,4.23 3.96 4.74,3 of 9 (4.40)
KSSQSVLYESRNKNSVA,PASTRES,QQYVRLPLS,n.d. 4.21 5.56,5 of 9 (3.88)
NSSQSVLYESRYKLSVA,WASTRES,QQYHRLPLS,n.d. n.d. n.d.,2 of 9 (4.08)
KSSQSVLAESRNKNSVA,WASTHES,QQYHRLPLS,n.d. n.d. n.d.,0 of 9
KSSQSVLYEHRNKNSWA,WASTRES,QQYWRLPLS,n.d. 2.67 n.d.,4 of 9 (4.05)
KSSQSVLYESRNKNSVA,WMSFRES,QQYKRLPLS,n.d. n.d. n.d.,0 of 9
KSSQSVLYESRNKNSVA,WASTRET,PQHHRLPLS,3.00 2.29 2.23,3 of 9 (4.71)
KSSQSVEYESRNKNSVA,WASTRES,QQYHRIPLS,1.79 1.39 2.19,0 of 9
KSSQSVLEESRNQNSVA,WASTRES,QQYHRLPWS,2.09 1.70 2.16,4 of 9 (3.68)
KSSQSRLYESRWKNSVA,WASTRES,QQYDRLPLS,1.01 1.20 0.99,0 of 9
KSGQSVLYEYFNKNSVA,WASTRES,QQYHRLPLS,1.47 1.43 1.68,1 of 9 (3.28)
KSTQSVLYESRNKNLVA,WASTRES,QQYNRLPLS,n.d. n.d. 4.52,0 of 9
PHSQSVLYSSRNKNSVA,WASTRES,QQYHRLPLS,3.74 n.d. n.d.,1 of 9 (3.88)
KSSQSVLYESCNKNSVA,WASTRES,QQYHRLRLQ,n.d. n.d. n.d.,1 of 9 (2.55)
KSSQSVEYESFNKNSVA,WASTMES,QQYHRLPLS,n.d. n.d. n.d.,0 of 9
KSSQSVLYESRNKNSVA,WFSTRES,QQYHRLPDS,6.16 3.55 6.71,5 of 9 (4.58)
KSSQSVLYESRNKNSVY,WASNRES,AQYHRLPLS,n.d. n.d. n.d.,2 of 9 (3.34)
KSSQSVLYESRNKNSVA,WASTRES,QQYHRCNES,n.d. n.d. n.d.,1 of 9 (4.49)
CSDQSVLYNSRNKNSVA,WASTRES,QQYHRLPLS,1.13 1.16 1.29,2 of 9 (4.40)
KSSESVLYESRNKNSVA,WASTRES,QQYVRLFLS,3.34 4.35 4.00,3 of 9 (4.07)
KSEQSVLYESRFKNSVA,WASTRES,QQYHRLPLS,4.21 n.d. n.d.,3 of 9 (3.74)
KSSYSVLYEFRNKNSVA,WASTRES,QQYHRLNLS,n.d. n.d. n.d.,2 of 9 (4.12)
KSSQSVLYNSMNKNSVL,WASTRES,QQYHRLPLS,n.d. n.d. n.d.,0 of 9
KSSQLVLYESRNKNSVA,WASTRES,QAHHRLPLS,0.94 1.05 1.04,5 of 9 (4.78)
KSSQSVLYESENKNEVA,WASTRES,QQYHRLMLS,n.d. 1.47 n.d.,1 of 9 (3.08)
KSSQSVLYSSRNKNSVA,WASTRES,NQYHRLPLF,n.d. n.d. n.d.,2 of 9 (4.38)
KSSQAVLYESRNKNSWA,WASTRES,QQYLRLPLS,n.d. 3.46 n.d.,0 of 9
KKSQSVLYESRNRNSVA,WASTRES,QQYHRLPLT,n.d. n.d. 1.61,0 of 9
KSSQSQLYESRNKNSVA,WLSTRES,QQYPRLPLS,n.d. n.d. n.d.,0 of 9
KSSQSVLYESRNKNSVA,WASTRES,QQYFRLPLS,0.25 0.63 0.33,0 of 9
GSSQSVLYESRNKNSTA,WASTRES,QQPHRLPLS,n.d. n.d. n.d.,2 of 9 (4.32)
KSSESVLYESRNKNSVA,WASTSES,QQYTRLPLS,n.d. n.d. n.d.,1 of 9 (3.50)
KWSQSVLYESRNKNSVA,WASTREY,QQYHRLPNS,1.54 1.48 1.91,1 of 9 (4.04)
KSSQSVLWESRNKTSVA,WASTRES,QQYHRLPLS,2.47 2.27 3.55,4 of 9 (4.31)

From the list, the first 7 with no signal in any replicate:

CDR-L1,CDR-L2,CDR-L3,log10 Kd (nM) by replicate,control signals
KSSQSDLYESQNKNSVA,WASTRES,PQYHRLPLS,n.d. n.d. n.d.,1 of 9 (2.56)
KWSQSVMYESRNKNSVA,WASTRIS,QQYHRLPLS,n.d. n.d. n.d.,0 of 9
NSSQSVLYESRYKLSVA,WASTRES,QQYHRLPLS,n.d. n.d. n.d.,2 of 9 (4.08)
KSSQSVLAESRNKNSVA,WASTHES,QQYHRLPLS,n.d. n.d. n.d.,0 of 9
KSSQSVLYESRNKNSVA,WMSFRES,QQYKRLPLS,n.d. n.d. n.d.,0 of 9
KSSQSVLYESCNKNSVA,WASTRES,QQYHRLRLQ,n.d. n.d. n.d.,1 of 9 (2.55)
KSSQSVEYESFNKNSVA,WASTMES,QQYHRLPLS,n.d. n.d. n.d.,0 of 9